Reference: ChEMBL document CHEMBL1146958, “The SAR of 4-substituted (6,6-bicyclic) piperidine cathepsin S inhibitors” (Bioorg Med Chem Lett, 2006)

Sequences of proteins named here, by UniProt entry; tags and fusion partners are left off.
UniProt P25774, whole entry: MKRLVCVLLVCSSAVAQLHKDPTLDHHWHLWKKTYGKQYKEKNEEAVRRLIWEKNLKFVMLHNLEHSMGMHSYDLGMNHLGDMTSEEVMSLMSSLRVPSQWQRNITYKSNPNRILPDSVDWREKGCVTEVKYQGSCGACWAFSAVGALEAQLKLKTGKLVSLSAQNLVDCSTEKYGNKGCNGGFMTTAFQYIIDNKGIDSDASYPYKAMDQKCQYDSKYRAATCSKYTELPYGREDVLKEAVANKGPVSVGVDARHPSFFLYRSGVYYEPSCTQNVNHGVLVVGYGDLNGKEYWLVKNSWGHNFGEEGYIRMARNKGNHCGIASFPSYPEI

Target: Cathepsin S (Homo sapiens, UniProt P25774)

Compound: O=C1COc2ccccc2N1C1CCN(CCCn2nc(-c3ccc(C(F)(F)F)cc3)c3c2CCNC3)CC1
- IC50: 1800 nM

Compound: CC(C)(C)OC(=O)N1CCc2c(c(-c3ccc(C(F)(F)F)cc3)nn2CCCN2CCC(N3C(=O)COc4ccccc43)CC2)C1
- IC50: 900 nM

Compound: CS(=O)(=O)N1CCc2c(c(-c3ccc(Br)cc3)nn2CC(O)CN2CCC(N3C(=O)OCc4ccccc43)CC2)C1 (stereo not given)
- IC50: 133 nM

Compound: CC(C)(C)OC(=O)N1CCc2c(c(-c3ccc(C(F)(F)F)cc3)nn2CC(O)CN2CCC(N3C(=O)COc4ccccc43)CC2)C1 (stereo not given)
- IC50: 826 nM

Compound: O=C1COc2ccccc2N1C1CCN(CC(O)Cn2nc(-c3ccc(C(F)(F)F)cc3)c3c2CCNC3)CC1 (stereo not given)
- IC50: 1920 nM
